Test system: naive Sprague Dawley rat hearts
Test: Langendorff isolated perfused rat heart (ex vivo contractility and relaxation)
Settings: Langendorff apparatus, as a function of concentration

## COc1cccc(OC)c1-n1c(NS(=O)(=O)[C@@H](C)[C@H](O)c2ncc(C)cn2)nnc1-c1cncc(C)c1 [Example 371.0, (1R,2S)—N-(4-(2,6-dimethoxyphenyl)-5-(5-methylpyridin-3-yl)-4H-1,2,4-triazol-3-yl)-1-hydroxy-1-(5-methylpyrimidin-2-yl)propane-2-sulfonamide]
  left ventricular dP/dtmax (load independent cardiac contractility): increases load independent cardiac contractility
  left ventricular dP/dtmin (load independent cardiac relaxation): increases load independent cardiac relaxation
